This is one part of the list.

The values that follow come from published antibiotic growth screens (doi:10.1038/s41589-023-01349-8).

The test has as its system A. baumannii ATCC 17978. The test can be described thus: relative growth (fraction of control); higher = less inhibition. The note with it: 50 µM.
On to `Cc1ccc(CN2CCN(CCO)CC2)o1`, for which the relative growth amounted to 0.967.

As to `CN(C)S(=O)(=O)c1ccc(C#N)cc1`, the relative growth was found to be 0.933.

As to `CC(=O)C1C(=O)C=C(C)OC1=O` (stereo not drawn), the relative growth stood at 0.935.

The molecule `CO[C@H]1CN(C)C(=O)c2ccc(NS(=O)(=O)CC(F)(F)F)cc2OC[C@@H](C)N(Cc2nccs2)C[C@H]1C` returned a relative growth of 1.04.

As for `CCOC(=O)CNC(=O)c1cnn2cccnc12`, the relative growth amounted to 0.949.

`O=C1N[C@@H](Cc2c[nH]c3ccccc23)COC(=O)[C@@H](Cc2ccc(F)cc2)CCC=CC[C@H]1CC(=O)N(CCO)Cc1ccccc1`: the relative growth turned out to be 1.34.

In the case of `COCC#Cc1ccc2c(c1)O[C@@H](CN(C)C(=O)c1ccccc1F)[C@@H](C)CN([C@H](C)CO)S2(=O)=O`, the relative growth came out at 1.08.

As to `C=CC[C@@H](CC(=O)N[C@H](CO)Cc1ccccc1)C(=O)NC[C@H](OC(=O)[C@@H](CC=C)Cc1ccc(F)cc1)c1ccccc1`, the relative growth turned out to be 1.07.

In the case of `CO[C@H](CN(C)S(=O)(=O)c1ccc(Cl)cc1)[C@H](C)CN([C@H](C)CO)S(=O)(=O)c1cccc(Cl)c1`, the relative growth was determined as 0.825.

`CC[C@@]1(C)N[C@H](C(=O)O)CS1` showed a relative growth of 0.991.

In the case of `CC1=C(C(=O)O)N2C(=O)[C@@H](NC(=O)[C@H](N)C3=CCC=CC3)C2SC1` (stereo partly drawn), the relative growth worked out at 0.915.

Molecule `CN1CCN(C(=O)C[C@H]2CC[C@H]3[C@@H](COC[C@H](O)CN3Cc3ccc4c(c3)OCO4)O2)CC1` yielded a relative growth of 0.887.

As to `NCC[C@@H]1CC[C@@H](NC(=O)NC2CCCCC2)[C@H](CO)O1`, the relative growth was found to be 1.11.

In turn, `COC(=O)[C@@H](C)N(C#N)c1nc(C)nc(C)n1` yielded a relative growth of 0.942.

The molecule `COc1ccc([C@@H]([C@H](Cc2ccccc2)OC(C)=O)N2C[C@@H](NC(=O)C(Cl)(Cl)Cl)[C@@H]3[C@H]([C@@H]2Cc2ccccc2)N(C)O[C@H]3c2ccccc2)cc1` came in with a relative growth of 0.966.

Regarding `O=C(C[C@H]1CC[C@@H](NC(=O)CN2CCOCC2)[C@H](CO)O1)NCCc1ccncc1`, the relative growth worked out at 1.02.

`CC(C)C#Cc1ccc2c(c1)O[C@@H](CN(C)C(=O)c1cccc(F)c1)[C@H](C)CN([C@@H](C)CO)S2(=O)=O` gave a relative growth of 0.855.

The molecule `COc1ccc(COC[C@@]23Oc4ccccc4[C@@H](NC(=S)N2C)[C@H]3CO[Si](C)(C)C(C)(C)C)cc1` yielded a relative growth of 1.1.

`O=C(CN1CCOCC1)N[C@@H]1CC[C@H](CCNC(=O)C2CCCCC2)O[C@H]1CO`: the relative growth was 0.967.

As to `Cc1ccc(S(=O)(=O)NCC[C@H]2CC[C@H](NS(=O)(=O)c3ccccc3Cl)[C@H](CO)O2)cc1`, the relative growth came to 1.11.

For the molecule `O=C(CN1CCOCC1)NCC[C@H]1CC[C@@H](NC(=O)c2ccc3c(c2)OCO3)[C@H](CO)O1`, the relative growth was found to be 1.1.

On to `CCOC(=O)c1cc(C(=O)OCC)n(C)n1`, for which the relative growth was 0.96.

In turn, `COc1cccc(-c2ccc3c(c2)O[C@@H](CN(C)C(=O)C2CC2)[C@H](C)CN([C@@H](C)CO)S3(=O)=O)c1` came in with a relative growth of 1.02.

For `COc1ccc(NC(=O)N[C@@H]2CC[C@H](CCNC(=O)CN3CCOCC3)O[C@@H]2CO)cc1`, the relative growth was 1.05.

`Cc1cc(O)c2c(c1)C(=O)c1cccc(O)c1C2=O` displayed a relative growth of 0.819.

`NC(=O)c1cn(Cc2c(F)cccc2F)nn1`: the relative growth came to 0.9.

On to `CC(C[N+](C)(C)C)OC(N)=O.[Cl-]` (stereo not drawn), for which the relative growth stood at 0.928.

As for `O=C(CN1CCOCC1)NCC[C@H]1CC[C@H](NC(=O)Nc2ccccc2)[C@@H](CO)O1`, the relative growth was determined as 0.925.

Molecule `CC(C(=O)O)c1ccc(-c2ccccc2)c(F)c1` (stereo not drawn) gave a relative growth of 0.937.

The molecule `COc1ccc(CNC(=S)NCCO)cc1` registered a relative growth of 0.757.

On to `O=C(OCC(O)CO)c1ccccc1Nc1ccnc2cc(Cl)ccc12` (stereo not drawn), for which the relative growth was 0.932.

For `C[N+](C)(C)CCCC[C@@H]1NC(=O)[C@H]2C[C@@H](C(=O)NCc3ccc(F)cc3)[C@@H](c3ccc(O)cc3)N2C1=O`, the relative growth came out at 0.841.

With `C[N+](C)(C)CCCCCCNC(=O)[C@H]1C[C@H]2C(=O)N3CCC[C@H]3C(=O)N2[C@H]1c1cccc(OCCO)c1`, the relative growth came to 1.05.

Take `O=C(NO)c1ccc(C(=O)N/N=C/[C@H](O)[C@H](O)[C@@H](O)[C@@H](O)CO)cc1`: the relative growth came out at 1.14.

Molecule `COCC(=O)Nc1ccc2c(c1)C(=O)N(C)C[C@@H](OC)[C@@H](C)CN(C(=O)Cc1cccnc1)[C@@H](C)CO2` returned a relative growth of 0.964.

`Br.NC(=O)C(c1ccccc1)(c1ccccc1)C1CCN(CCc2ccc3c(c2)CCO3)C1` (stereo not drawn) had a relative growth of 0.979.

Molecule `C[C@@H]1CN([C@H](C)CO)S(=O)(=O)c2ccc(Br)cc2O[C@@H]1CN(C)C(=O)C1CCCCC1` showed a relative growth of 1.02.

With `CN(C)C=C(C=[N+](C)C)c1[nH]ncc1N`, the relative growth is 1.14.

In turn, `C=CCOC(=O)[C@@H]1[C@H]2C(=O)O[C@H](c3ccccc3)[C@H](c3ccccc3)N2[C@H](c2ccc(OCCOC(=O)[C@H]3C[C@H]4C(=O)N5CCC[C@H]5C(=O)N4[C@H]3c3ccc(O)cc3)cc2)[C@@]12C(=O)Nc1ccccc12` yielded a relative growth of 0.943.

Take `NS(=O)(=O)c1ccc(N2CCCC2=O)cc1`: the relative growth was found to be 0.884.

`C[C@H](CO)N1C[C@H](C)[C@H](CN(C)S(=O)(=O)c2ccccc2F)Oc2cc(C#Cc3cccc(F)c3)ccc2S1(=O)=O` yielded a relative growth of 1.05.

In turn, `CO[C@@H]1CN(C)C(=O)c2cc(NC(=O)C3CC3)ccc2OC[C@@H](C)N(C(=O)Cc2ccccn2)C[C@@H]1C` yielded a relative growth of 1.03.

Regarding `COC(=O)C[C@H]1CC[C@H]2[C@@H](COC[C@H](O)CN2S(=O)(=O)c2ccc(F)cc2)O1`, the relative growth was determined as 0.948.

`CC(C)Cc1ccc([C@@H](C)c2nc(-c3cccs3)no2)cc1` showed a relative growth of 1.08.

For the molecule `NC(=O)CN1C(=O)C(=O)c2cc(Cl)ccc21`, the relative growth was determined as 0.967.

Turning to `c1ccc2c(c1)[nH]c1ncccc12`, the relative growth was determined as 1.02.

For `O=C(C[C@H]1CC[C@H](NS(=O)(=O)c2ccc(F)cc2)[C@H](CO)O1)NCc1ccc(Cl)c(Cl)c1`, the relative growth stood at 1.

In the case of `CC(C)NC(=O)N[C@@H]1C=C[C@H](CC(=O)NCCCN(C)C)O[C@@H]1CO`, the relative growth was 0.858.

On to `CN[C@H](CC(C)C)C(=O)NC1C(=O)N[C@@H](CC(N)=O)C(=O)N[C@H]2C(=O)NC3C(=O)N[C@H](C(=O)N[C@@H](C(=O)O)c4cc(O)cc(O)c4-c4cc3ccc4O)[C@H](O)c3ccc(c(Cl)c3)Oc3cc2cc(c3O[C@@H]2OC(CO)[C@@H](O)[C@H](O)[C@H]2O[C@H]2C[C@](C)(N)[C@H](O)[C@H](C)O2)Oc2ccc(cc2Cl)[C@H]1O.Cl` (stereo partly drawn), for which the relative growth was found to be 0.967.

Molecule `CS(=O)(=O)OCCCCOS(C)(=O)=O` displayed a relative growth of 1.

Take `C[C@@H](Cc1c[nH]c2ccccc12)NC(=O)CN`: the relative growth was determined as 0.983.

The molecule `CC(=O)N(C)C[C@H]1Oc2cc(C#CCN(C)C)ccc2S(=O)(=O)N([C@H](C)CO)C[C@@H]1C` showed a relative growth of 0.987.

`Cc1c(NC(=O)c2cccnc2)c(=O)n(-c2ccccc2)n1C` registered a relative growth of 1.02.

Take `CCOc1cc(OCC)cc(C(=O)N[C@@H](Cc2ccc(-n3cc(CCC(=O)NO)nn3)cc2)C(=O)OC)c1`: the relative growth amounted to 0.902.

Molecule `O=C(/C=C/c1ccc(O)cc1)c1ccc(O)cc1O` came in with a relative growth of 1.05.

`O=C(O)[C@H]1CCS(=O)(=O)C1` gave a relative growth of 1.13.

`O=C1O[C@@H](c2ccccc2)[C@@H](c2ccccc2)N2[C@@H](c3ccc(OCCO)cc3)[C@]3(C(=O)Nc4ccc(C#CC5(O)CCCCCC5)cc43)[C@@H](C(=O)Nc3nc4ccccc4s3)[C@H]12` had a relative growth of 0.904.

In turn, `Cc1ccc(S(=O)(=O)N[C@@H](Cc2ccccc2)C(=O)NCCn2cc(CCC(=O)NO)nn2)cc1` came in with a relative growth of 1.25.

Regarding `COc1ccccc1NC(=O)N(C)C[C@H]1Oc2cc(Br)ccc2S(=O)(=O)N([C@H](C)CO)C[C@@H]1C`, the relative growth was 1.01.

Take `COc1ccc(CNC(=O)C[C@@H]2C[C@H]3c4cc(NS(=O)(=O)c5ccc(F)cc5)ccc4O[C@H]3[C@H](CO)O2)cc1`: the relative growth was 0.866.

`COCC(=O)Nc1ccc2c(c1)C(=O)N(C)C[C@@H](OC)[C@H](C)CN(Cc1ccccc1OC)[C@@H](C)CO2`: the relative growth was 1.01.

For `C[C@H]1CN([C@@H](C)CO)S(=O)(=O)c2ccc(C#CCN(C)C)cc2O[C@H]1CN(C)Cc1ccccc1F`, the relative growth was determined as 1.01.

Turning to `OCc1c[nH]c2ccccc12`, the relative growth stood at 0.923.

Take `O=S(=O)(NCC[C@H]1CC[C@@H](NS(=O)(=O)c2cccc(Cl)c2)[C@H](CO)O1)c1cccc(F)c1`: the relative growth turned out to be 1.04.

In turn, `COc1ccc(-c2coc3c(O)c(O)c(OC)cc3c2=O)cc1` registered a relative growth of 1.04.

Molecule `CCC1(C)OC(=O)N(C)C1=O` (stereo not drawn) came in with a relative growth of 0.995.

The molecule `C[C@H]1CN([C@@H](C)CO)S(=O)(=O)c2ccc(C#CCN(C)C)cc2O[C@@H]1CN(C)C(=O)CN(C)C` displayed a relative growth of 0.878.

Molecule `CO[C@@]1(NC(=O)C(C(=O)[O-])c2ccc(O)cc2)C(=O)N2C(C(=O)[O-])=C(CSc3nnnn3C)CO[C@@H]21.[Na+].[Na+]` (stereo partly drawn) came in with a relative growth of 1.11.

Regarding `O=C(OOC(=O)c1ccccc1)c1ccccc1`, the relative growth was found to be 0.974.

Molecule `CC(O)Cn1cnc2c1c(=O)n(C)c(=O)n2C` (stereo not drawn) returned a relative growth of 0.957.

The molecule `COc1ccc([Si](C)(C)[C@@H]2[C@@H](CC(=O)N3Cc4ccccc4C[C@H]3CO)O[C@]3(C(=O)N(Cc4ccc(N5C(=O)c6cccc7cccc5c67)cc4)c4ccccc43)[C@H]2C)cc1` showed a relative growth of 0.958.

On to `NCCCC[C@H](N)C(=O)O`, for which the relative growth stood at 1.1.

In turn, `CC1(C)CC[C@]2(C(=O)O[C@@H]3O[C@H](CO)[C@@H](O)[C@H](O)[C@H]3O)CC[C@]3(C)C(=CC[C@H]4[C@@]5(C)CC[C@@H](O[C@@H]6O[C@H](C(=O)O)[C@@H](O[C@@H]7OC[C@@H](O)[C@H](O)[C@H]7O)[C@H](O[C@@H]7OC[C@](O)(CO)[C@H]7O)[C@H]6O)C(C)(C)[C@@H]5CC[C@]43C)[C@@H]2C1` registered a relative growth of 1.03.

As for `NS(=O)(=O)c1cc2c(cc1C(F)(F)F)NCNS2(=O)=O`, the relative growth is 1.02.

Molecule `CN(Cc1ccc(C(C)(C)C)cc1)Cc1cccc2ccccc12.Cl` showed a relative growth of 0.954.

The molecule `CN1CCC(=C2c3ccccc3C=Cc3ccccc32)CC1.Cl` registered a relative growth of 0.965.

Molecule `NC(=O)CCCCC1CCSS1` (stereo not drawn) showed a relative growth of 1.01.

In turn, `COCCOC(=O)N1C(=O)[C@@]2(c3cc(C#CC4(O)CCCCCC4)ccc31)[C@H](C(=O)NC[C@H](O)c1ccccc1)[C@H]1C(=O)O[C@H](c3ccccc3)[C@H](c3ccccc3)N1[C@@H]2c1ccc(OCCO)cc1` showed a relative growth of 1.14.
